For two compounds, Ratio Ki results are on record in ChEMBL document CHEMBL3091322 (J Med Chem, 2013).

The experiment is filed under the species Rattus norvegicus. Nature of the experiment: Selectivity ratio of Ki for Sprague-Dawley rat brain frontal cortex NET to Ki for Sprague-Dawley rat brain stem SERT. The experiment is classed as tissue-based.

Take `CN(C)CCCC1(c2ccc(F)cc2)OCc2cc(CN3CCOCC3)ccc21` (racemic): the Ratio Ki is 5880. Take `CCCCN(C)CCCC1(c2ccc(F)cc2)OCc2cc(C#N)ccc21` (racemic): the Ratio Ki worked out at 4.5.
